Assay results reported in patent US5179122A, “Nutritional supplement containing Vitamin E” (priority 1991, dated 1993).

What was measured:
[1] = Melt temperature of VEA/TPGS blends by differential scanning calorimetry; assay type: physicochemical; details: VEA/TPGS (wt. %); DSC
Experimental: In this example, miscibility of the blends was investigated by determining the melt temperature of various blend ratios. […] The mixture was heated and blended to a homogeneous blend and cooled to room temperature. The melting point of each blend was determined by differential scanning calorimetry.

[2] = human, in vivo, po; cited from earlier work
[3] = horse, in vivo, 7200 min
[4] = Surface tension as a function of concentration in water at room temperature (critical micelle concentration); assay type: physicochemical
Experimental: The surface tension of Myvatex Texture Lite was measured as function of concentration.

d-alpha-tocopherylpolyethylene glycol 1000 succinate [TPGS]
Melt Temperature [1]: 43.5 °C
elevation of blood tocopherol [2]: elevation of blood tocopherol was detected within one week
tocopherol blood level relative to synthetic Vitamin E [3]: more than 3 times
critical micelle concentration [4]: about 0.01 g/100 mL
